Assay results as given in patent US9624477B2 (priority 2004, dated 2017).

Tested on: Pi-omega3Des
Experiment: Functional characterization of Pi-omega3Des: expression in yeast, feeding with various fatty acids, FAME analysis via GLC
Details: yeasts transformed with pYes3-Pi-omega3Des, grown in minimal medium in the presence of the fatty acid (300 μM); FAMEs analyzed via GLC; blank vector as control

Molecule | desaturation of the fed ω-6-fatty acid to the ω-3-fatty acid by Pi-omega3Des
CCCCC/C=C\C/C=C\C/C=C\CCCCC(=O)O | desaturation of γ-linolenic acid (18:3 ω-6-fatty acid) to stearidonic acid (18:4 ω-3-fatty acid)
CCCCC/C=C\C/C=C\CCCCCCCC(=O)O | desaturation of linoleic acid (18:2 ω-6-fatty acid) to α-linolenic acid (18:3 ω-3-fatty acid)
eicosadienoic acid | desaturation of C20:2 ω-6-fatty acid to C20:3 ω-3-fatty acid
CCCCC/C=C\C/C=C\C/C=C\C/C=C\CCCC(=O)O [arachidonic acid, reference compound] | desaturation of arachidonic acid (C20:4 ω-6-fatty acid) to eicosapentaenoic acid (C20:5 ω-3-fatty acid)
docosatetraenoic acid | desaturation of docosatetraenoic acid (C22:4 ω-6-fatty acid) to docosapentaenoic acid (C22:5 ω-3-fatty acid)
dihomo-γ-linolenic acid | desaturation of C20:3 ω-6-fatty acid to C20:4 ω-3-fatty acid
